This is an account of results in patent EP3670512A1, “DIAZABICYCLOOCTANONES AS INHIBITORS OF SERINE BETA-LACTAMASES” (Antabio SAS, priority 2018, dated 2020).

Experiment [1] deals with NTBC189 (K. pneumoniae strain expressing TEM-OSBL(b), CTX-M-14, OXA-48(c)). The experiment can be described thus: Meropenem potentiation, broth micro-dilution MIC, strain NTBC189. To be noted: MIC of meropenem with 4 µg/mL of the labelled compound, numeric. The class given is cell-based. Background: Dilution methods test growth across graded concentrations, often in twofold steps.

Experiment [2] relates to NTBC093 (E. cloacae strain expressing KPC-2, TEM-1). Nature of the experiment: Meropenem potentiation, broth micro-dilution MIC, strain NTBC093. The class given is cell-based. To be noted: MIC of meropenem with 4 µg/mL of the labelled compound, banded.

Turning to `NC(=O)[C@@H]1CC[C@@H]2CN1C(=O)N2OS(=O)(=O)O` [Avibactam, avibactam], the “MIC mero + 4 µg/mL inhibitor” value in experiment [1] was 0.25 (A) µg/mL.
Consider `O=C1N2C[C@@H](CC[C@H]2C(F)(F)F)N1OS(=O)(=O)[O-].[Na+]` [Example 1, Sodium (2S, 5R)-7-oxo-2-(trifluoromethyl)-1,6-diazabicyclo[3.2.1]octan-6-yl sulfate], for which, in experiment [2], the “MIC mero + 4 µg/mL inhibitor” value was “(A) (MIC < 1 µg/mL (A))”.
Still for that read-out and setting: the value for `O=C1N2C[C@@H](CC[C@H]2C(F)F)N1OS(=O)(=O)[O-].[Na+]` [Example 2, Sodium (2S, 5R)-7-oxo-2-(difluoromethyl)-1,6-diazabicyclo[3.2.1]octan-6-yl sulfate] was “(A) (MIC < 1 µg/mL (A))”.
